Read-outs that look alike come from different tables or passages of the source.
What was measured:
[1] = tested on: mouse serum proteins; test: Serum protein (albumin) binding by ultrafiltration, mouse serum; assay type: in vitro ADME; details: 37° C.
Method: (§1) The devices were pre-treated with PBS containing Tween 20 (5% v/v) as disclosed in Hausner 2007, followed by triplicate rinses with PBS. An aliquot of each formulated radiotracer in PBS (≤25 μL, 20-60 KBq) was thoroughly mixed with 0.5 mL serum at 37° C. in a microfuge tube. The mixture was incubated at 37° C. for 5 min and an aliquot (50 μL) of was transferred to a tube for γ-counting. The remaining sample was transferred to a Centrifree Ultrafiltration device and centrifuged for 40 min. at 1500×g at ambient temperature (20-24° C.). An aliquot (50 μL) of the filtrate was transferred to a tube for γ-counting. For each radiotracer, a blank was run using 0.5 mL PBS/Tween 20 (5% v/v) instead of serum (n=4) to determine non-specific binding. Following γ-counting, the protein-bound radioactivity was calculated by subtracting the counts measured in the filtrate aliquot (i.e., not protein bound) from the counts in the corresponding serum aliquot. The data are expressed as mean±standard deviation of fraction of radioactivity bound to protein after subtraction of non-specific binding determined in the blank.

[2] = In vitro serum stability, human serum; assay type: in vitro ADME; details: 24 h, 37° C., read-out: stability in human serum (intact radiotracer)
Method: Mouse or human serum (500 μl, both purchased from Millipore Sigma) was combined with an aliquot of the formulated radiotracer (100-200 μCi) and incubated at 37° C. Aliquots (100-200 μl) were drawn for analysis at 1 and 2 h post-incubation for the ^68Ga radiotracers and 1 and 24 h post-incubation for ^177Lu radiotracers, mixed with absolute ethanol (500 μl, 4° C.), and centrifuged (2300× g, 3 min) to precipitate out serum proteins. The supernatant was diluted with HPLC Solvent A and analyzed by radio-HPLC to determine the fraction of intact radiotracer as disclosed in Hausner et al., “In vitro and in vivo evaluation of the effects of aluminum [^18F]fluoride radiolabeling on an integrin αvβ6-specific peptide” Nuclear medicine and biology.

[3] = tested on: human serum proteins; test: Serum protein (albumin) binding by ultrafiltration, human serum; assay type: in vitro ADME; details: 37° C.
Method: as §1

[4] = tested on: BxPC-3 (αvβ6 (+)) tumors; test: Blocking study (cold peptide 10 min before radiotracer), biodistribution; assay type: in vivo, mice; details: 1 h p.i.
Method: (§2) Female nu/nu nude mice (6-8 weeks old) were purchased from Charles River Laboratories (Wilmington, MA, USA) and handled according to the UC Davis Institutional Animal Care and Use Committee. BxPC-3 cells (5×10^6) in 100 μl 1:1 GFR-Matrigel: serum-free RPMI were implanted subcutaneously into the left shoulder flank and allowed to grow for approximately 2 weeks (therapy study) and 3 weeks (0.5-1 cm in diameter, for imaging and biodistribution studies). All cells were evaluated with flow cytometry before injection to confirm integrin expression levels. Food and water were available ad libitum.
(§3) For blocking studies, respective non-chelated cold peptide (30 mg/kg, 10 mg/mL (DOTA-5G) and 48 mg/kg, 16 mg/mL (DOTA-ABM-5G) solution in PBS) was injected 10 min. before the formulated radiotracer. At each time point, the mice (n=3/time point/radiotracer) were anesthetized and sacrificed. The tissues were collected, rinsed with PBS, and the radioactivity of each measured with a gamma counter. Radioactivity concentrations were calibrated, decay-corrected, and expressed as percent of injected dose per gram of tissue (% ID/g).

[5] = as above; assay type: in vivo, mice; details: female, nu/nu nude, mouse, BxPC-3 tumor, iv, total radioactivity; 1 h p.i.; DOTA-5G 30 mg/kg 10 min before
Method: as §2, §3

[6] = tested on: BxPC-3 (αvβ6 (+)) tumors; test: Biodistribution in mice bearing BxPC-3 tumors; assay type: in vivo
Method: as §2, §3

[7] = Biodistribution in mice bearing BxPC-3 tumors; assay type: in vivo; details: female, nu/nu nude, mouse, iv, total radioactivity; for tissue uptake at 1 h: 1 h p.i.; for tissue uptake at 24 h: 24 h p.i.; for tissue uptake at 48 h: 48 h p.i.; for tissue uptake at 72 h: 72 h p.i.; for tissue uptake at 4 h: 4 h p.i.
Method: as §2, §3

[8] = BxPC-3 tumor, read-out: uptake BxPC-3 tumor
[9] = bladder, read-out: uptake Bladder
[10] = gall bladder, read-out: uptake Gall Bladder
[11] = kidneys, read-out: uptake Kidneys
[12] = large intestines, read-out: uptake Lg Intestines
[13] = muscle, read-out: uptake Muscle
[14] = pancreas, read-out: uptake Pancreas
[15] = small intestines, read-out: uptake Sm Intestines
[16] = spleen, read-out: uptake Spleen
[17] = stomach, read-out: uptake Stomach

CC(C)C[C@H](NC(=O)[C@H](CC(=O)O)NC(=O)CNC(=O)[C@H](CCCNC(=N)N)NC(=O)[C@H](CC(C)C)NC(=O)[C@H](CC(N)=O)NC(=O)[C@@H]1CCCN1C(=O)[C@@H](NC(=O)CNC(=O)[C@H](CC(N)=O)NC(=O)CNC(=O)CCOCCOCCOCCOCCOCCOCCOCCOCCOCCOCCOCCOCCOCCOCCOCCOCCOCCOCCOCCOCCOCCOCCOCCOCCOCCOCCOCCOCCNC(=O)CN1CCN(CC(=O)O)CCN(CC(=O)O)CCN(CC(=O)O)CC1)C(C)C)C(=O)N[C@@H](CCC(N)=O)C(=O)N[C@H](C(=O)N[C@@H](CC(C)C)C(=O)NCC(=O)N[C@@H](CCC(N)=O)C(=O)N[C@@H](CCCNC(=N)N)C(=O)N[C@H](C(=O)NCC(=O)N[C@@H](CCCNC(=N)N)C(=O)N[C@H](C(=O)NCCOCCOCCOCCOCCOCCOCCOCCOCCOCCOCCOCCOCCOCCOCCOCCOCCOCCOCCOCCOCCOCCOCCOCCOCCOCCOCCOCCOCCC(N)=O)[C@@H](C)O)C(C)C)C(C)C [[^177Lu]Lu DOTA-5G, metal not drawn]
albumin (serum protein) binding [1]: 18.1±0.2%
remaining at 24 h [2]: ≥ 97%
albumin (serum protein) binding [3]: 16.2±0.4%
change of BxPC-3 tumor uptake by blocking (Δ) [4]: −75%
tissue uptake at 1 h [5]: 0.3 ± 0.02 %ID/g
BxPC-3/kidney ratio ([6]; 1 h p.i.): 0.08±0.05
BxPC-3/large intestine ratio ([6]; 1 h p.i.): 0.31±0.02
BxPC-3/stomach ratio ([6]; 1 h p.i.): 0.31±0.06
uptake Blood ([6]; 1 h p.i.): 0.10±0.02 % ID/g
uptake BxPC-3 tumor ([6]; 1 h p.i.): 1.23±0.19 % ID/g
uptake Kidneys ([6]; 1 h p.i.): 12.23±3.91 % ID/g
uptake Stomach ([6]; 1 h p.i.): 4.10±0.98 % ID/g
uptake Blood ([6]; 24 h p.i.): 0.00 ± 0.00 % ID/g
uptake Blood ([6]; 48 h p.i.): 0.00 ± 0.00 % ID/g
BxPC-3/kidney ratio ([6]; 72 h p.i.): 0.14±0.05
BxPC-3/large intestine ratio ([6]; 72 h p.i.): 1.74±0.39
BxPC-3/stomach ratio ([6]; 72 h p.i.): 0.87±0.28
uptake Blood ([6]; 72 h p.i.): 0.00 ± 0.00 % ID/g
uptake BxPC-3 tumor ([6]; 72 h p.i.): 0.81±0.16 % ID/g
uptake Kidneys ([6]; 72 h p.i.): 6.16±1.45 % ID/g
uptake Stomach ([6]; 72 h p.i.): 0.95±0.13 % ID/g
detectability in blood ([6]; later time points (after 1 h)): undetectable
tissue uptake at 1 h [7, 8]: 1.23 ± 0.19 %ID/g
tissue uptake at 24 h [7, 8]: 1.05 ± 0.11 %ID/g
tissue uptake at 48 h [7, 8]: 1.07 ± 0.45 %ID/g
tissue uptake at 72 h [7, 8]: 0.81 ± 0.16 %ID/g
tissue uptake at 1 h [7, 9]: 3.83 ± 2.75 %ID/g
tissue uptake at 24 h [7, 9]: 0.93 ± 0.29 %ID/g
tissue uptake at 48 h [7, 9]: 0.89 ± 0.17 %ID/g
tissue uptake at 72 h [7, 9]: 0.71 ± 0.24 %ID/g
tissue uptake at 1 h ([7]; blood, read-out: uptake Blood): 0.1 ± 0.03 %ID/g
tissue uptake at 1 h ([7]; bone, read-out: uptake Bone): 0.17 ± 0.13 %ID/g
tissue uptake at 24 h ([7]; bone, read-out: uptake Bone): 0.11 ± 0.02 %ID/g
tissue uptake at 48 h ([7]; bone, read-out: uptake Bone): 0.09 ± 0.02 %ID/g
tissue uptake at 72 h ([7]; bone, read-out: uptake Bone): 0.06 ± 0.01 %ID/g
tissue uptake at 1 h ([7]; brain, read-out: uptake Brain): 0.01 %ID/g
tissue uptake at 24 h ([7]; brain, read-out: uptake Brain): 0.01 %ID/g
tissue uptake at 48 h ([7]; brain, read-out: uptake Brain): 0.01 %ID/g
tissue uptake at 72 h ([7]; brain, read-out: uptake Brain): 0.01 %ID/g
tissue uptake at 1 h [7, 10]: 0.33 ± 0.29 %ID/g
tissue uptake at 24 h [7, 10]: 0.18 ± 0.17 %ID/g
tissue uptake at 48 h [7, 10]: 0.74 ± 0.97 %ID/g
tissue uptake at 72 h [7, 10]: 0.34 ± 0.49 %ID/g
tissue uptake at 1 h ([7]; heart, read-out: uptake Heart): 0.35 ± 0.04 %ID/g
tissue uptake at 24 h ([7]; heart, read-out: uptake Heart): 0.14 ± 0.01 %ID/g
tissue uptake at 48 h ([7]; heart, read-out: uptake Heart): 0.13 ± 0.03 %ID/g
tissue uptake at 72 h ([7]; heart, read-out: uptake Heart): 0.1 ± 0.03 %ID/g
tissue uptake at 1 h [7, 11]: 12.2 ± 3.91 %ID/g
tissue uptake at 24 h [7, 11]: 9.54 ± 2.33 %ID/g
tissue uptake at 48 h [7, 11]: 7.52 ± 2.65 %ID/g
tissue uptake at 72 h [7, 11]: 6.16 ± 1.45 %ID/g
tissue uptake at 1 h [7, 12]: 3.98 ± 0.62 %ID/g
tissue uptake at 4 h [7, 12]: < 4 %ID/g
tissue uptake at 24 h [7, 12]: 1.95 ± 0.22 %ID/g
tissue uptake at 48 h [7, 12]: 1.31 ± 0.4 %ID/g
tissue uptake at 72 h [7, 12]: 0.46 ± 0.03 %ID/g
tissue uptake at 1 h ([7]; liver, read-out: uptake Liver): 0.1 ± 0.03 %ID/g
tissue uptake at 4 h ([7]; liver, read-out: uptake Liver): < 0.2 %ID/g
tissue uptake at 24 h ([7]; liver, read-out: uptake Liver): 0.06 ± 0.01 %ID/g
tissue uptake at 72 h ([7]; liver, read-out: uptake Liver): 0.04 %ID/g
tissue uptake at 1 h ([7]; lung, read-out: uptake Lung): 1.19 ± 0.18 %ID/g
tissue uptake at 24 h ([7]; lung, read-out: uptake Lung): 0.53 ± 0.06 %ID/g
tissue uptake at 48 h ([7]; lung, read-out: uptake Lung): 0.36 ± 0.09 %ID/g
tissue uptake at 72 h ([7]; lung, read-out: uptake Lung): 0.27 ± 0.05 %ID/g
tissue uptake at 1 h [7, 13]: 0.43 ± 0.05 %ID/g
tissue uptake at 24 h [7, 13]: 0.18 ± 0.05 %ID/g
tissue uptake at 48 h [7, 13]: 0.13 ± 0.01 %ID/g
tissue uptake at 72 h [7, 13]: 0.11 ± 0.07 %ID/g
tissue uptake at 1 h [7, 14]: 0.41 ± 0.38 %ID/g
tissue uptake at 24 h [7, 14]: 0.16 ± 0.03 %ID/g
tissue uptake at 48 h [7, 14]: 0.13 ± 0.04 %ID/g
tissue uptake at 72 h [7, 14]: 0.09 %ID/g
tissue uptake at 1 h ([7]; skin, read-out: uptake Skin): 0.75 ± 0.08 %ID/g
tissue uptake at 24 h ([7]; skin, read-out: uptake Skin): 0.58 ± 0.09 %ID/g
tissue uptake at 48 h ([7]; skin, read-out: uptake Skin): 0.41 ± 0.11 %ID/g
tissue uptake at 72 h ([7]; skin, read-out: uptake Skin): 0.23 ± 0.06 %ID/g
tissue uptake at 1 h [7, 15]: 2.18 ± 0.33 %ID/g
tissue uptake at 24 h [7, 15]: 0.82 ± 0.05 %ID/g
tissue uptake at 48 h [7, 15]: 0.4 ± 0.06 %ID/g
tissue uptake at 72 h [7, 15]: 0.13 ± 0.02 %ID/g
tissue uptake at 1 h [7, 16]: 0.03 ± 0.03 %ID/g
tissue uptake at 24 h [7, 16]: 0.01 ± 0.01 %ID/g
tissue uptake at 48 h [7, 16]: 0.01 ± 0.01 %ID/g
tissue uptake at 72 h [7, 16]: 0.01 ± 0.01 %ID/g
tissue uptake at 1 h [7, 17]: 4.1 ± 0.98 %ID/g
tissue uptake at 24 h [7, 17]: 2.55 ± 0.52 %ID/g
tissue uptake at 48 h [7, 17]: 1.84 ± 0.08 %ID/g
tissue uptake at 72 h [7, 17]: 0.95 ± 0.13 %ID/g

Source: patent US12649008B2, “Peptide receptor radionuclide therapy” (The Regents of the University of California, priority 2020, dated 2026)
